## scFv variants of Ab-14 (heavy chain) against a SARS-CoV-2 spike peptide

Target: peptide PDVDLGDISGINAS, taken from heptad repeat 2 (HR2) of SARS-CoV-2 spike.

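The starting antibody came from a phage panning campaign against this peptide. Designed CDR sequences, proposed from the first random library and measured here. Group labels follow the data file (Ctrl: baseline library sampled from a position-specific scoring matrix, with some repeated check sequences; Rand: our label for a block that the file lists under HC and that is probably the random mutants of the ten best first-round binders; GP: Gaussian process model; GPLM: also part of the Gaussian process libraries; HC: hill climbing; Gen: genetic algorithm; Gibbs: Gibbs sampling; a sequence that several methods proposed may carry one label only). The assay is AlphaSeq: two haploid yeast populations carry antibody and antigen on their surface. Mating (16 h, 30 °C) was followed by selection of diploids and sequencing of their barcodes. Scores were corrected for input abundance and mapped to Kd with protein pairs of known affinity run in the same pool. Each pool was mated in six replicate cultures.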

Parent scFv Ab-14: VH joined to VL by the linker GGGGSGGGGSGGGGS. Changes lie in the heavy chain CDRs alone.
VH: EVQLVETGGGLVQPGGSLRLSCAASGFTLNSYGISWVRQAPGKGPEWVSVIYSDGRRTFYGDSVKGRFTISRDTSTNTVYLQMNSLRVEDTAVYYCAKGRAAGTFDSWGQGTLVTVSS
VL: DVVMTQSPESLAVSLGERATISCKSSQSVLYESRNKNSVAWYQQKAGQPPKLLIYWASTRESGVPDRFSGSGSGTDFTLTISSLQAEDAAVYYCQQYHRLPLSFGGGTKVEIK

Variants are written as CDR1, CDR2 and CDR3 of the heavy chain (limits as in the source). Parent: GFTLNSYGIS, VIYSDGRRTFYGDSVK, GRAAGTFDS. Variants here have at most six changes. Kd is apparent (estimated from mating counts) and averaged on the log scale over replicates with a signal. Smaller is tighter. "no signal" means that the variant was in the library but no mating with the target was seen in any replicate; the authors take this as a sign of poor binding, and no number exists. Nonspecific signal, from three strains lacking the peptide, appeared in 1% of pairings of all heavy chain designs, centred on 120 nM (5% of these signals below 7.0 nM); values are not corrected for it. The control count says in how many pairings with the empty strains this scFv gave a signal. In the paper, a design with two or fewer of six values counts as a poor binder. A sequence measured in both rounds can read differently, since the two assays cover different ranges.

With GFELNSYGIS | VIYADGRRTFYGDSVK | GEAAGTFDS [GPLM_Gen] the result was 1.7 nM (6 of 6 replicates; controls 0 of 18). The variant HFTLNSYGIS | VIYSDGRRTFYGDSVK | GRLAGTFDS [Ctrl] gave no signal (0 of 6 replicates; controls 0 of 18). The variant GFTLNSYSIS | VIYSDGRRTFYGDSVK | GRAVGTFDS [Ctrl] showed no signal (0 of 6 replicates; controls 0 of 18). For GFTLNSYGRS | VIYSDGRRTFYGDQVK | GSAAGTFDT [Ctrl], the assay gave no signal (0 of 6 replicates; controls 1 of 18). For GFTLNSYGIS | VIYSDGRRTFYGDAVK | GEAAGTFDS [Ctrl], the assay gave 41 nM (6 of 6 replicates; controls 2 of 18). With GFDLNSYGIS | VIYSDGRRTFYTDRVK | GRTAGTFDS [GP_Gibbs] the result was 4.6 nM (6 of 6 replicates; controls 1 of 18). The variant GFALNEYGIS | VIYSDGRRTFYGDSVK | GRTAGTFDS [GPLM_Gen] gave 1.2 nM (6 of 6 replicates; controls 0 of 18).

With GFELNSYGIS | VIYSDGRRTFYGDSVK | GQAAGTFDQ [GPLM_Gen] the result was 47 nM (6 of 6 replicates; controls 0 of 18). The variant GFTLNAYGIS | VIYSDGRRTFYADSVK | GTSSGTFDS [Ctrl] gave 1.0 µM (2 of 6 replicates; controls 1 of 18). With GFTLDSYGES | VYYSDGRRTFYGDSVK | GRAAGTALS [Rand] the result was no signal (0 of 6 replicates; controls 0 of 18). The variant GFTLNSYGGS | VDYSDGRRTFYGNQVR | GRAAGMFDS [Ctrl] gave no signal (0 of 6 replicates; controls 0 of 18). The variant GFELNEYGIS | VIYSDGRRTFYGDSVK | GQAAGTFDA [GP_Gen] gave no signal (0 of 6 replicates; controls 0 of 18). The variant GFTLNEYGIS | VIYSDGRRTFYGDSVK | GRAAGTFTL [GP_HC] gave no signal (0 of 6 replicates; controls 0 of 18). With GFTLNSYGIS | VIYSDGRRTFYTDSVK | GHEAGTFDS [GPLM_HC] the result was 660 pM (6 of 6 replicates; controls 0 of 18).

The variant GFTLNSYGIS | VIYSDGRKTFYDDSVK | GKLAGTFDS [GPLM_HC] showed no signal (0 of 6 replicates; controls 0 of 18). The variant GFELNSYGIS | VIYSDGRRTFYGDSVK | GHQAGTFDS [GP_Gen] showed 9.4 nM (6 of 6 replicates; controls 0 of 18). With GFTLDSYGIS | VIYSDGRRTFYIDSVK | GQAAGTFDS [GP_Gen] the result was no signal (0 of 6 replicates; controls 0 of 18). For GFTLNSYGIS | VIYSDGRRTAYGQSVK | GRQAGTFDS [Ctrl], the assay gave no signal (0 of 6 replicates; controls 0 of 18). With GFTLNEYGIS | VIYSDGRRTFYGDSVK | GRAAGTFWW [GP_HC] the result was no signal (0 of 6 replicates; controls 1 of 18). For EFTLNSYGIS | VIYADGRRTFYGDSVK | GEAAGTFDS [GPLM_Gen], the assay gave 1.2 nM (6 of 6 replicates; controls 1 of 18). The variant GFSLNSYGIS | VIYADGRRTFYGDSVK | GRAAGTFDN [GPLM_Gen] showed 1.2 nM (6 of 6 replicates; controls 1 of 18).

For GFHLNDYGIS | VIYSDGRRTFYDDSVK | GRLAGTFDS [GP_HC], the assay gave 3.0 nM (6 of 6 replicates; controls 0 of 18). The variant GFNLNSYGIS | VIYSDGRRKFYLDAVK | GRAAGTFDS [Ctrl] gave 4.0 nM (1 of 6 replicates; controls 0 of 18). The variant GFDLNEYGIS | VIYSDGRRTFYGDAVK | GRAAGTFDI [GP_HC] gave 1.4 nM (5 of 6 replicates; controls 0 of 18). The variant GFDLNSYGIS | VIYSDGRRTFYGDSVK | GNTAGTFDE [GP_Gibbs] showed 1.3 nM (6 of 6 replicates; controls 1 of 18). For GETLNDYSIS | VIYSDGRRTFYGDSVK | AREAGTFDS [Ctrl], the assay gave no signal (0 of 6 replicates; controls 0 of 18). The variant GFKLNSYGIS | VIYSDGRRTFYKDSVK | GQAAGTFDL [GP_Gibbs] showed 3.3 µM (2 of 6 replicates; controls 0 of 18). The variant GFTLNSYGIS | VIYSDGRRTFYSDSVK | GMAGGTFDS [GPLM_HC] showed 230 nM (6 of 6 replicates; controls 0 of 18).

The variant GFTLNSYGIS | VIYSDGRRTFYGDSVK | GRAAATFNS [Ctrl] gave 9.0 µM (1 of 6 replicates; controls 1 of 18). With GFTLNEYGIS | VIYSDGRRTEYSDSVK | GRAAGTFDS [GP_HC] the result was 19 nM (6 of 6 replicates; controls 0 of 18). The variant GFELNSYGIS | VIYADGRRTFYGDSVK | GRTAGTFDF [GP_Gibbs] gave 1.1 nM (6 of 6 replicates; controls 0 of 18). The variant GFTLNEYGIS | VIYADGRRTFYGDSVK | GRAAGTFDL [GP_HC] showed 950 pM (6 of 6 replicates; controls 0 of 18). With GFSLNDYGIS | VIYSDGRRTFYGDRVK | GRTAGTFDS [GPLM_Gen] the result was 630 pM (6 of 6 replicates; controls 0 of 18). With GFALNTYGIS | VIYSDGRRTAYGDSVK | GRQAGTFDS [GP_Gibbs] the result was 2.7 nM (6 of 6 replicates; controls 0 of 18). The variant GNTLNSYGIS | VIYSDGRRTFYGDNVK | GFASGTFDI [Ctrl] showed no signal (0 of 6 replicates; controls 1 of 18).

For GFALNEYGIS | VIYSDGRRTFYGDSVK | GRVAGTFDT [GP_Gibbs], the assay gave 1.3 nM (6 of 6 replicates; controls 0 of 18). The variant GFELNNYGIS | VIYSDGRRTFYGDSVK | GRTAGTFDT [GP_Gen] showed 2.2 nM (6 of 6 replicates; controls 1 of 18). The variant GFALNSYGIS | VIYSDGRRTFYDDSVK | GKLAGTFDS [GP_HC] gave 40 nM (6 of 6 replicates; controls 0 of 18). The variant GFTLNEYGIS | VIYSDGRRTFYGDSVK | GRAALTFDV [GPLM_HC] gave no signal (0 of 6 replicates; controls 0 of 18). For GFTLNSYGIS | VIYSDGRRTFYGDSVK | GEAAGRFDS [Ctrl], the assay gave 2.8 µM (1 of 6 replicates; controls 0 of 18). For GFSLNSYGIS | VIYADGRRTFYGDSVK | GQAAGTFDV [GP_Gen], the assay gave 360 pM (6 of 6 replicates; controls 1 of 18). With EFTLNSYGIS | VIYSDGRRTFYSDSVK | GEAGGTFDF [GP_HC] the result was no signal (0 of 6 replicates; controls 0 of 18).

For GFTLNSYGIS | VIYSDGRRTKYDDSVK | GQLAGTFDS [Rand], the assay gave no signal (0 of 6 replicates; controls 0 of 18). For GFTLNSYGIS | VIYSDGRRTFYFDSVK | GKLAGTFDS [Ctrl], the assay gave no signal (0 of 6 replicates; controls 0 of 18). The variant GFSLNSYGIS | VIYRDGKRTFYGDSVK | GYAAGAFDS [Ctrl] gave no signal (0 of 6 replicates; controls 0 of 18). The variant DFTLNSYGIS | VIYADGRRTFYGDSVK | GVAAGTFDS [Ctrl] showed 17 nM (6 of 6 replicates; controls 0 of 18). For GFTLADYGIS | VIYSDGRRNAYGDSVK | GKAAGTFDS [Ctrl], the assay gave 23 nM (4 of 6 replicates; controls 0 of 18). For GFTLNRYGIS | VIYSDGRRTFYGDSVK | GRAAGTFDS [Ctrl], the assay gave no signal (0 of 6 replicates; controls 1 of 18). With GFTKNSYGIS | VIYSDGRRTFYGDSVK | GRAAGTFDS [Ctrl] the result was no signal (0 of 6 replicates; controls 1 of 18).

For GFTLESYGIS | VIYADGRRTFYGDAVK | GRAAGTFDS [GPLM_Gen], the assay gave 870 pM (6 of 6 replicates; controls 0 of 18). For GFTLNSYGIS | VIYSDGRRTFYGDSVK | GWEAGTFDS [Ctrl], the assay gave 18 nM (3 of 6 replicates; controls 0 of 18).

A selection of 8 entries from above:

| CDR-H1 | CDR-H2 | CDR-H3 | group | apparent Kd | seen in | empty controls |
|---|---|---|---|---|---|---|
| HFTLNSYGIS | VIYSDGRRTFYGDSVK | GRLAGTFDS | Ctrl | no signal | 0/6 | 0/18 |
| GFTLNEYGIS | VIYSDGRRTFYGDSVK | GRAALTFDV | GPLM_HC | no signal | 0/6 | 0/18 |
| GFELNSYGIS | VIYSDGRRTFYGDSVK | GQAAGTFDQ | GPLM_Gen | 47 nM | 6/6 | 0/18 |
| EFTLNSYGIS | VIYADGRRTFYGDSVK | GEAAGTFDS | GPLM_Gen | 1.2 nM | 6/6 | 1/18 |
| GFTKNSYGIS | VIYSDGRRTFYGDSVK | GRAAGTFDS | Ctrl | no signal | 0/6 | 1/18 |
| GFELNEYGIS | VIYSDGRRTFYGDSVK | GQAAGTFDA | GP_Gen | no signal | 0/6 | 0/18 |
| GFTLDSYGIS | VIYSDGRRTFYIDSVK | GQAAGTFDS | GP_Gen | no signal | 0/6 | 0/18 |
| GFALNTYGIS | VIYSDGRRTAYGDSVK | GRQAGTFDS | GP_Gibbs | 2.7 nM | 6/6 | 0/18 |

Values reported by Li et al. 2023, doi:10.1038/s41467-023-39022-2 (FLAb copy).